1 molecule from article PMC2703631, “Identification of non-muscle myosin heavy chain as a substrate for Cdk5 and tool for drug screening” (Journal of Biomedical Science, 2009) can be followed below.

This assay concerns Cdk5/p25 transfected HEK293 cells. As to the kind of experiment: NMHC-B (pSerCdk substrate) phosphorylation by Western blot in Cdk5/p25 transfected HEK293 cells. The class given is cell-based, human. Conditions: Cdk5/p25 transfected HEK293 cells treated with 1 μM. Background: In western blotting, separated proteins are transferred to a membrane and probed.

The structures appear in SMILES notation.

Turning to `CC[C@H](CO)Nc1nc(NCc2ccccc2)c2ncn(C(C)C)c2n1` [Roscovitine], the “200 kDa pSerCdk substrate band intensity” value is “decreased in intensity”.
